This passage reports IC50 results from patent publication US20110098180A1, “Herbicide-Resistant Plants, And Polynucleotides And Methods For Providing Same” (United States Department of Agriculture, priority 2002, published 2011).

Protein sequences, listed by entry. Tags and fused reporters are not part of them. Residues count along the entry.
UniProt Q66PY0, 1-580 R304C: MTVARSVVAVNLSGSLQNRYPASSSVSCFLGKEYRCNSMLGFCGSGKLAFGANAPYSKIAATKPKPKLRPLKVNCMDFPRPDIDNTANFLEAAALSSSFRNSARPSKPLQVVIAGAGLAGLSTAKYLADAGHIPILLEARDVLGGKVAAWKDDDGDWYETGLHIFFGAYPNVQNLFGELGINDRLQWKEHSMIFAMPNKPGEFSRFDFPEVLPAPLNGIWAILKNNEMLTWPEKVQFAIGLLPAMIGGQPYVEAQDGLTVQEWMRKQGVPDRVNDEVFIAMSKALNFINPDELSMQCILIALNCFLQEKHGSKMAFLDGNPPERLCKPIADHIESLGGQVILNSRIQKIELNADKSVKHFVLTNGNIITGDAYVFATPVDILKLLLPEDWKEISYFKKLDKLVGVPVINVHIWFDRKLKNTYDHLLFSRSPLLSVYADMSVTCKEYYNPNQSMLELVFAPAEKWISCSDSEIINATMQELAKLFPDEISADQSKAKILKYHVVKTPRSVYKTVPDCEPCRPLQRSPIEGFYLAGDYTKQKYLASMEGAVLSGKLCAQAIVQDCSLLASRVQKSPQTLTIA
UniProt Q66PY0, 1-580 R304H: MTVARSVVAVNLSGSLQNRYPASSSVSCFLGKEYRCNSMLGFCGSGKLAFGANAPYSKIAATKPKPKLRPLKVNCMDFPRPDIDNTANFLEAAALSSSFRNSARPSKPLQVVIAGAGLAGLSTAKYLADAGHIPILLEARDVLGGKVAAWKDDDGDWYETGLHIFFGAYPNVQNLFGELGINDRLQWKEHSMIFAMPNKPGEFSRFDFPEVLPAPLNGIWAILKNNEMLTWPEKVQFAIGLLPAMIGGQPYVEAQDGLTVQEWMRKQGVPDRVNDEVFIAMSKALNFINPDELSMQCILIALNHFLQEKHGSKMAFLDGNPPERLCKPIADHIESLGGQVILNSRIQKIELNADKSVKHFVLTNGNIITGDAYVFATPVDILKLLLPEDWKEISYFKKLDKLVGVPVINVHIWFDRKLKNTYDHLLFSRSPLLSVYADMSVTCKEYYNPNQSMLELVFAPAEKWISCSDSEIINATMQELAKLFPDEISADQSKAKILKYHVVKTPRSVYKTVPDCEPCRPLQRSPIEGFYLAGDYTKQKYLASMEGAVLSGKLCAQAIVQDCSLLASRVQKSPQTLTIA
UniProt Q66PY0, 1-580 R304T: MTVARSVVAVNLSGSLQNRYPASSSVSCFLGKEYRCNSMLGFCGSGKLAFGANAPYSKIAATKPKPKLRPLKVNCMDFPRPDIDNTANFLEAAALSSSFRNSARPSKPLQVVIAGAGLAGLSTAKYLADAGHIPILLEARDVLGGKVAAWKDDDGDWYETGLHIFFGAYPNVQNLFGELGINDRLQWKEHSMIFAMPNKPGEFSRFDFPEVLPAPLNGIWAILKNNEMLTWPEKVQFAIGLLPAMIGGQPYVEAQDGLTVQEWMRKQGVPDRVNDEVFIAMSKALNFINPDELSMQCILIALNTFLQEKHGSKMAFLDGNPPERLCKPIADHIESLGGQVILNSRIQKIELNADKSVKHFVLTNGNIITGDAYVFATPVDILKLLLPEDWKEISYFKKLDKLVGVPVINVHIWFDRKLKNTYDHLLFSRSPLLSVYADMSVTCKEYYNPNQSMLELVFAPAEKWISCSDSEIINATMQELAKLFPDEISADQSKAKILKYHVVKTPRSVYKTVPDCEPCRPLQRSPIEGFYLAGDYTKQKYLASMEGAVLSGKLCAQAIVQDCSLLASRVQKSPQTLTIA
UniProt Q66PY0, 1-580: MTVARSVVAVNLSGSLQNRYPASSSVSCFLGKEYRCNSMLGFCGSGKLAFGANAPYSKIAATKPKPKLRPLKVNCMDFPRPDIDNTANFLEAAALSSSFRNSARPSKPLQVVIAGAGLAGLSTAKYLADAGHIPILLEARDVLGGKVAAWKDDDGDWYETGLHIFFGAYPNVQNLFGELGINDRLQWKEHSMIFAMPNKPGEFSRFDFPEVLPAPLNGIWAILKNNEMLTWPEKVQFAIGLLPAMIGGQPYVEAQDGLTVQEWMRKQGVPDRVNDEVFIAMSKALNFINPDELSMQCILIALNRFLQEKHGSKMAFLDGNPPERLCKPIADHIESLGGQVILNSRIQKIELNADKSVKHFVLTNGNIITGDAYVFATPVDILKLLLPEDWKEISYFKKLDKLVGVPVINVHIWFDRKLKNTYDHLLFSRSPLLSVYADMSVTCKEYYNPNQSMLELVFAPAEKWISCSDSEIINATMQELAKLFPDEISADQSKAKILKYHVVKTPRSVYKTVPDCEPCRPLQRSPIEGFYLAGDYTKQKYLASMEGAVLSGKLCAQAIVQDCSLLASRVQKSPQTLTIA
UniProt Q66PY0, 1-580 R304S: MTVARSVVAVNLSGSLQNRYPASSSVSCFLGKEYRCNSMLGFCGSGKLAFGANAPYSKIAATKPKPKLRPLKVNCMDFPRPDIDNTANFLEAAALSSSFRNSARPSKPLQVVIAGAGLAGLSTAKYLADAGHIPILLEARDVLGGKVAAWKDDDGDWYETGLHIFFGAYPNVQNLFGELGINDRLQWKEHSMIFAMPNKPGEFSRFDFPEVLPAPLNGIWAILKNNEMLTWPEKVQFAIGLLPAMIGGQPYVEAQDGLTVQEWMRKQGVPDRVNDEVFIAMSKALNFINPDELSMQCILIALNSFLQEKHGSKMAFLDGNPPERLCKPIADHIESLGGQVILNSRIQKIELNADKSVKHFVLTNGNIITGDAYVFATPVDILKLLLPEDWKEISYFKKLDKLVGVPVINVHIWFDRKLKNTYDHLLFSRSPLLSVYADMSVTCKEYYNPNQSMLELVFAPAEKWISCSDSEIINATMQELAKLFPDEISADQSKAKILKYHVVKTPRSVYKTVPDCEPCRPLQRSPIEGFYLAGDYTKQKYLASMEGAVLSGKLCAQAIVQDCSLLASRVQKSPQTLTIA

Common to all, as to assay: Cross resistance to bleaching herbicides, in vitro PDS inhibition, non-His-tagged (Table 2)
Holding throughout (assay type): biochemical

In assay [1] the target is hydrilla PDS Arg^304 → Cysteine (Hydrilla verticillata, UniProt Q66PY0, R304C). Conditions: read-out: I50, Cysteine at 304, construct in frame with LacZalpha-ccdB. The procedure: (§1) The expression constructs in Table 2 were derived from an original clone of the susceptible PDS gene from Hydrilla and then the Arg^304 was mutated to the listed amino acid. Expression was under the control of the lac promoter but in frame with the initiation codon of the LacZalpha-ccdB gene in the pCR4-TOPO vector (Invitrogen Inc., CA, Cat. #K4575-01).
(§2) All mutagenesis was performed, unless stated otherwise, using the TOPO-vector containing the wildtype (H4) PDS-sequence, which was extracted from an overnight culture with the Qiagen Plasmid Prep Kit as described above. The amount of the extracted plasmid was diluted to 10 ng/μl and used as template in a mutagenesis-procedure using the QuikChange Site-directed Mutagenesis Kit (Stratagene, Calif., #200518). The design of the mutagenesis-primers was conducted according to the manufacturers protocol to enable the specific change of Arg^304-codon to code for the desired amino acid. Primers (purchased from MWG-Biotech) and their introduced amino acid change are listed below with the changed codon underlined:
(§3) The reactions were performed according to the manufacturers protocol. Reactions were set up in MicroAmp-tubes on ice with 38 μl ddH2O, 5 μl 10× reaction buffer, 2 μl plasmid (10 ng/μl), 1.25 μl forward-mutagenesis primer (100 ng/μl), 1.25 μl of reverse mutagenesis primer (100 ng/μl), 1 μl dNTP-mix and 1 μl PfuTurboDNA polymerase (2.5 U/μl). The reactions were placed in a PE 9700 thermal cycler and heated to 95° C. for 30 sec followed by 12 rounds at 95° C. for 30 sec, 55° C. for 1 min and 68° C. for 12 min. The PCR was followed by a DpnI-digestion and transformation in XL1-Blue supercompetent cells as described in the manual. 4-6 resulting colonies were grown overnight in LB-medium with kanamycin and plasmid DNA was isolated as described above. The plasmid was used as template for sequencing with M13 and internal PDS-primers as described above on a LiCOR-system. Sequences were assembled and analyzed using Seqman. Introduced mutations were identified and plasmids carrying the desired mutation(s) were transferred into competent TOP10-cells, using the transformation protocol from the TOPO TA Cloning Kit. Resulting colonies were grown overnight in Wu-broth with kanamycin, aliquoted and stored at −80° C. until further use. 1 ml of Wu-cultures was used to start 1-L LB-cultures with kanamycin as described before, to express active PDS-enzyme for testing as described.
(§4) Phytoene desaturase activity and its inhibition by herbicides was determined using an in vitro system using components derived from the in vivo production of phytoene and phytoene desaturase proteins. All mutations described in Examples 3 and 4 were tested. […] The clones were used for the heterologous expression of Hydrilla-PDS-enzyme. In particular, bacterial cultures were grown from single colonies overnight in Wu-broth (6.27 g/L K2HPO4, 1.8 g/L KH2PO4, 0.5 g/L Na-citrate, 0.9 g/L (NH4)2SO4, 10 g/L tryptone, 5 g/L yeast extract, 10 g/L NaCl, 44 ml/L glycerol, 0.1 mM MgSO4, pH 7.2) with kanamycin. 1-mL was aliquoted in centrifuge tube and stored at −80° C. For expression, 1 L LB-medium with kanamycin was inoculated with 1-mL Wu-culture and grown for 24 h at 37° C. to stationary phase with shaking at 200 rpm. The cells were collected by centrifugation at 2000×g. All of the following steps were done at 4° C. unless otherwise noted.

Assay [2] concerns the target hydrilla PDS Arg^304 → Histidine (Hydrilla verticillata, UniProt Q66PY0, R304H). Conditions: read-out: I50, Histidine at 304, construct in frame with LacZalpha-ccdB. The procedure:
as §1, §2, §3, §4

For assay [3], the target named is Hydrilla PDS Arg^304 → Threonine (Hydrilla verticillata, UniProt Q66PY0, R304T). The note with it: read-out: I50, Threonine at 304, construct in frame with LacZalpha-ccdB. The procedure: as §1, §2, §3, §4
The target in assay [4] is hydrilla PDS position 304 Arginine (wildtype) (Hydrilla verticillata, UniProt Q66PY0). Conditions: read-out: I50, Arginine at 304, construct in frame with LacZalpha-ccdB. The procedure:
as §1, §2, §3, §4

Assay [5] addresses hydrilla PDS Arg^304 → Serine (Hydrilla verticillata, UniProt Q66PY0, R304S). Conditions: read-out: I50, Serine at 304, construct in frame with LacZalpha-ccdB. The procedure:
as §1, §2, §3, §4

pIC50: −log10 of the molar value.

Take Fluridone: the pIC50 is 5.24 in assay [1]; 5.30 in assay [2]; 4.74 in assay [3]; 5.74 in assay [4]; 5.00 in assay [5].
